Molecular target: Histone deacetylase (Homo sapiens) (UniProt Q13547+O15379+Q9UBN7+Q92769+Q9UQL6+Q8WUI4+Q9BY41+Q96DB2+P56524+Q9UKV0+Q969S8)
Conditions: HeLa, at 100 µM

Chains of the proteins cited; added tags and fusions are not shown. Lines headed by an entry give the natural chain unless they say otherwise; changes in a name come on top.
UniProt Q13547: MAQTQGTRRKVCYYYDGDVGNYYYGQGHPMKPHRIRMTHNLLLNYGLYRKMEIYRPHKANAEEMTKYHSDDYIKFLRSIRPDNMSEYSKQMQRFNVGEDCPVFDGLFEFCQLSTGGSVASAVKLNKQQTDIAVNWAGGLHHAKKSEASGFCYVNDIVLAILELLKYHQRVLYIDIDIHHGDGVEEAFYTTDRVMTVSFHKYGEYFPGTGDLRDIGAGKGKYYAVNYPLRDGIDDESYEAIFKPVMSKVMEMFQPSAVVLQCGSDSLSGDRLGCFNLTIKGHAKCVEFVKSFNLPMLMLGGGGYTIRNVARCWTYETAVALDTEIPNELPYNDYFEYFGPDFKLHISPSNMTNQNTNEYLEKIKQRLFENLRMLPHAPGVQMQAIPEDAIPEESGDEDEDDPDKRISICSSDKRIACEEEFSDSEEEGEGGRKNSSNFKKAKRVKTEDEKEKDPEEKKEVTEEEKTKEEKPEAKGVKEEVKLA
UniProt Q9UBN7: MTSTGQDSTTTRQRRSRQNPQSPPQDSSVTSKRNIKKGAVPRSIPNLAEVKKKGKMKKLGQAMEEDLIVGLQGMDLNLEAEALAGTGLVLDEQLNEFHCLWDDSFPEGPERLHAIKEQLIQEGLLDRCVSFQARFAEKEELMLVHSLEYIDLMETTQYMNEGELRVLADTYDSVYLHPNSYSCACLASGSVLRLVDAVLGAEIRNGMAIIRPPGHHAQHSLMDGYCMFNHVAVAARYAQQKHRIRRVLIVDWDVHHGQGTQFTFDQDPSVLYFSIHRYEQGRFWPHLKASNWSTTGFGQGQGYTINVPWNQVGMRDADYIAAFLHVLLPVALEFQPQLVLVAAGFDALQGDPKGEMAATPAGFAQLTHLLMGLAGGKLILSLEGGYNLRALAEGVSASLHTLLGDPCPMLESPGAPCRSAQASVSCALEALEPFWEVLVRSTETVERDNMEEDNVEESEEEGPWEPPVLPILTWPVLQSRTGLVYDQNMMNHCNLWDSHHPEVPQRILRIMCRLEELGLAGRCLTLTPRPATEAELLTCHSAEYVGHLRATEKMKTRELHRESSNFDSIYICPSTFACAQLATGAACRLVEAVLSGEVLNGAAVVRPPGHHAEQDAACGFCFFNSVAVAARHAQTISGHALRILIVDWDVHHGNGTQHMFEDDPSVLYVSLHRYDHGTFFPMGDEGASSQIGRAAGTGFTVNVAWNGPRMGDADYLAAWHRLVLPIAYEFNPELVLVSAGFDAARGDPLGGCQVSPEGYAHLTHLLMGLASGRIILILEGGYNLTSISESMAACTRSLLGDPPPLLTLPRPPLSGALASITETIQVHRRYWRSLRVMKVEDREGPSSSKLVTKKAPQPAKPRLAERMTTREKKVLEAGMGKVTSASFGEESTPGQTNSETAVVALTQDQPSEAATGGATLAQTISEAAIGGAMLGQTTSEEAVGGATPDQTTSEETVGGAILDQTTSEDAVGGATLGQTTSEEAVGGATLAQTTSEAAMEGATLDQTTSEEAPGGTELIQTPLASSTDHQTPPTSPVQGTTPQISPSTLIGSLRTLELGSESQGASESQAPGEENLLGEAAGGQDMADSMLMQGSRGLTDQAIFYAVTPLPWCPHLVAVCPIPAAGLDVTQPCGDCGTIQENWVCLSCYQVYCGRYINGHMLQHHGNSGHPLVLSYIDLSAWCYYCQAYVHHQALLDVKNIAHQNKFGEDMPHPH
UniProt Q92769: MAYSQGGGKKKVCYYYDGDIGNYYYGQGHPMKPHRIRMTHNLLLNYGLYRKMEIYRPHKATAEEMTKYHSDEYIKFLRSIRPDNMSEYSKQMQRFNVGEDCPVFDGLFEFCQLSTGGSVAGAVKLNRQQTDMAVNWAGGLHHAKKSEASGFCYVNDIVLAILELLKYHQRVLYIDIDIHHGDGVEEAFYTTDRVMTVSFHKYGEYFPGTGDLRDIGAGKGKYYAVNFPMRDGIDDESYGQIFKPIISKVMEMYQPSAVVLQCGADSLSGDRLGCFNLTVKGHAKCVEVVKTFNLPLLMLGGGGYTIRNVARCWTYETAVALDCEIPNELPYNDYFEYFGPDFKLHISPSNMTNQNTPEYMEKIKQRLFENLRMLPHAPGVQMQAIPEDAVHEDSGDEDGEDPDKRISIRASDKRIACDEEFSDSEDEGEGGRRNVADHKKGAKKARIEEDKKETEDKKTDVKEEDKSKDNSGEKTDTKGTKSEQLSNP
UniProt Q9UQL6: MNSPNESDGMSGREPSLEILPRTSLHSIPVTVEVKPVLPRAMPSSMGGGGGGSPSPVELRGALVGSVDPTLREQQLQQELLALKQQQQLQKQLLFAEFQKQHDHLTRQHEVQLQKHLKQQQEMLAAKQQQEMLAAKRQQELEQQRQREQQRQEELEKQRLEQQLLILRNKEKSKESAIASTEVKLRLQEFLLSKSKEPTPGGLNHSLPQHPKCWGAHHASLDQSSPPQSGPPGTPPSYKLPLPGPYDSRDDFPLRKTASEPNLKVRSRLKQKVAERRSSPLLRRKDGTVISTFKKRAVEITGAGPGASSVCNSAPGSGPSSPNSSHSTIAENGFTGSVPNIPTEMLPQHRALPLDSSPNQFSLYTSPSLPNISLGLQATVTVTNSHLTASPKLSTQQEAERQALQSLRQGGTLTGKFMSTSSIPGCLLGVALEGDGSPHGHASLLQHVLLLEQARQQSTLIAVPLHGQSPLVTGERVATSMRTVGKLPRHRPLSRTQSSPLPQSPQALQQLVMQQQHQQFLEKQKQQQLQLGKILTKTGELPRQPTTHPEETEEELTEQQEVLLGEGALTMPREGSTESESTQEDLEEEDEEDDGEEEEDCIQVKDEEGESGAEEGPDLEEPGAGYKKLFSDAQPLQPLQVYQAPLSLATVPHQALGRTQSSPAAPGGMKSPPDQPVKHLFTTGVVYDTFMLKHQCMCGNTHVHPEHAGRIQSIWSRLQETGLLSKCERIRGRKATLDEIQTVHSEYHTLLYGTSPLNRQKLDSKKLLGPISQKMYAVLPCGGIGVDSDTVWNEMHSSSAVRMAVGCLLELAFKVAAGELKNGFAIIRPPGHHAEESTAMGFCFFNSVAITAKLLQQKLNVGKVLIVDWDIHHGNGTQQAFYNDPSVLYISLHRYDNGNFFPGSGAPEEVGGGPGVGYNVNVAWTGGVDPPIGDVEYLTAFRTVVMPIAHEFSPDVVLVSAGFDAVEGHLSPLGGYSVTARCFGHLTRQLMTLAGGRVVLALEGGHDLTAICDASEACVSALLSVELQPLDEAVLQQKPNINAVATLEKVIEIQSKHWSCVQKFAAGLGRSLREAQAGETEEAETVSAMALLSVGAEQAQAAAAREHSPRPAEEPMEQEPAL
UniProt Q96DB2: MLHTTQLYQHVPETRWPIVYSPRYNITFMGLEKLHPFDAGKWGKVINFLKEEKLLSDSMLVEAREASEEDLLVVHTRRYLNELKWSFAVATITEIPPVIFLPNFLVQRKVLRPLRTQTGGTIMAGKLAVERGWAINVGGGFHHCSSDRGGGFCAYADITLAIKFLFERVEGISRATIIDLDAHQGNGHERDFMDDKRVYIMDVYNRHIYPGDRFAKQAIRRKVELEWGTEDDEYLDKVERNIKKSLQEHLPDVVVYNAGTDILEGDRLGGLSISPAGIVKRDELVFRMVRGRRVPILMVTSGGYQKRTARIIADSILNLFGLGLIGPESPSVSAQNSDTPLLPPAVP
UniProt P56524: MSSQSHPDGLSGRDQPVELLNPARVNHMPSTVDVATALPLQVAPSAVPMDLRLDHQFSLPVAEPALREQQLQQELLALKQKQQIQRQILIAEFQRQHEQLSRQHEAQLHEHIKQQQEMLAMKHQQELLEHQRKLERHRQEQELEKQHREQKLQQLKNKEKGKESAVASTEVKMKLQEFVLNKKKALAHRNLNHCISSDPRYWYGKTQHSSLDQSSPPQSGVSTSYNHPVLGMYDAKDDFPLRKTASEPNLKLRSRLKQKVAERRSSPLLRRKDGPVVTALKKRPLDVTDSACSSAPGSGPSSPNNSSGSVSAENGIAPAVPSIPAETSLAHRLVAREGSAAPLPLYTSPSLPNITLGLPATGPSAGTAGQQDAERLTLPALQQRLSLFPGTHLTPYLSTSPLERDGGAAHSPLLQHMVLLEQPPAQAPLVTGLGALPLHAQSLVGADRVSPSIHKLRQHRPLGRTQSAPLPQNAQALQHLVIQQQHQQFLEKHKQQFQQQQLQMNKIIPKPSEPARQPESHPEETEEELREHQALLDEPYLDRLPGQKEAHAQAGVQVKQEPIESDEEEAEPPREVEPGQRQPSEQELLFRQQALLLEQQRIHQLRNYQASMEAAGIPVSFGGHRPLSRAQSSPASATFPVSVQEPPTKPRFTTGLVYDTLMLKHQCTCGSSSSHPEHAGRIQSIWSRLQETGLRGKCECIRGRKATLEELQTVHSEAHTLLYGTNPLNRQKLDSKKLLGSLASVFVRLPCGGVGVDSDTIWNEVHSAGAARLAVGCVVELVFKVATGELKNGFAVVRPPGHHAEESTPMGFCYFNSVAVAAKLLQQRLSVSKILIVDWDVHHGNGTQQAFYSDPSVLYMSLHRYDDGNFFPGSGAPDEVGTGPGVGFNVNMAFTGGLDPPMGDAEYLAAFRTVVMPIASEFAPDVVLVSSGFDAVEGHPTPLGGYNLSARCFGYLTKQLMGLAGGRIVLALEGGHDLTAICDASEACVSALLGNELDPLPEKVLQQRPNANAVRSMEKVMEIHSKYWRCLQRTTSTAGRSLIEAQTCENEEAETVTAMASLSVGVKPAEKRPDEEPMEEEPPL
UniProt Q9UKV0: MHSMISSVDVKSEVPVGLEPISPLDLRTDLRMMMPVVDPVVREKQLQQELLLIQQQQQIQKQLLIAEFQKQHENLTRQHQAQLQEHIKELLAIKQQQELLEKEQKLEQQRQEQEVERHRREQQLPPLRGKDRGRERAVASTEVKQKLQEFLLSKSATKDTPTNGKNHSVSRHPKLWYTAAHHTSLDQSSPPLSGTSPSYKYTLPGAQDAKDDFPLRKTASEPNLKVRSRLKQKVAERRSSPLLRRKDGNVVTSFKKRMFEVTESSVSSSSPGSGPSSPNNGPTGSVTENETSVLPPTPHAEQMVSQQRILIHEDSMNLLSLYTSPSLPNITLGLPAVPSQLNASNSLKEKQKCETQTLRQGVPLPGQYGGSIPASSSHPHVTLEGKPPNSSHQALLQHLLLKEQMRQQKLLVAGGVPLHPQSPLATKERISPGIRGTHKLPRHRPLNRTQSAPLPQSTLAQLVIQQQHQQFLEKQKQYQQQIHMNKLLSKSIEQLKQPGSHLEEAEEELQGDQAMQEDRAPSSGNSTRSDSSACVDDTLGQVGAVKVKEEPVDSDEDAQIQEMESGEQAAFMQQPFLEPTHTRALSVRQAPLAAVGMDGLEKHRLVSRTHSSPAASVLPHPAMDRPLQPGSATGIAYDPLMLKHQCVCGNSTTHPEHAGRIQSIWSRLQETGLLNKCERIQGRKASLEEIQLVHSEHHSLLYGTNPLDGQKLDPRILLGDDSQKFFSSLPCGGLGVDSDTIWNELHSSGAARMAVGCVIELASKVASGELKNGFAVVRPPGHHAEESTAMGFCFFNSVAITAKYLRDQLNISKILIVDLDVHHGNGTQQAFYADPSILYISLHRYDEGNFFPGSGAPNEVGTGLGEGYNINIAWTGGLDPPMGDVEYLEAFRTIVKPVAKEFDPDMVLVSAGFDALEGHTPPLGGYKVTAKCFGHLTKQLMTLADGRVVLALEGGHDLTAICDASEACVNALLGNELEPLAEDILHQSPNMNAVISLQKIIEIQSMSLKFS
UniProt Q969S8: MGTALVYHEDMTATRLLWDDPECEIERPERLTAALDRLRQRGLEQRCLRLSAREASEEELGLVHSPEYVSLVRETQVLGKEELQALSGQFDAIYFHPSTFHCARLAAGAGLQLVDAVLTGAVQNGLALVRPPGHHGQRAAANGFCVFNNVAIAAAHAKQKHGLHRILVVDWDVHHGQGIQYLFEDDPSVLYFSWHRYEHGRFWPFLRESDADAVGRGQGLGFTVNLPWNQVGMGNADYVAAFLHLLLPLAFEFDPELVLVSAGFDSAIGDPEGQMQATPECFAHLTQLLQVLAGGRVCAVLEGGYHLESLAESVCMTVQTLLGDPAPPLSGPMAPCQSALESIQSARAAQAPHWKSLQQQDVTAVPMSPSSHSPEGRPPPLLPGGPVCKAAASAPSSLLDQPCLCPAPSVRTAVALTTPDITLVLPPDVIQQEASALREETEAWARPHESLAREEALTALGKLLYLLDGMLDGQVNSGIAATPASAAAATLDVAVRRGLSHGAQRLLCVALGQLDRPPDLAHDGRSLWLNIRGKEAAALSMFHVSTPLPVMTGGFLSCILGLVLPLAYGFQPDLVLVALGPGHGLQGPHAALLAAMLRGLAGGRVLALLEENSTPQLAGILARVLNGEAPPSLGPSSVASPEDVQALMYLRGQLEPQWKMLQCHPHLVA

inhibition [%] | SMILES
6 | NCC(=O)NCCCCCC(=O)Nc1ccccc1
0 | O=C(CO)NCCCCCC(=O)Nc1ccccc1

Reference: ChEMBL document CHEMBL1142831, “Identification of a potent non-hydroxamate histone deacetylase inhibitor by mechanism-based drug design” (Bioorg Med Chem Lett, 2005)
